Assay results as given in patent US7081343B2, “Methods for identifying modulators of NF-KB activity” (The Regents of the University of California, priority 2001, dated 2006).

Test system: GFP-RelA
Experiment: GFP-RelA epifluorescence localization in HeLa cells co-expressing HDAC3
Type: cell-based, human
Conditions: TSA 800 nM, 5 hours, FIG. 3I panel 4
Protocol: To monitor potential effects of HDAC3 on the intracellular trafficking of RelA, green fluorescent protein-RelA fusion proteins (GFP-RelA) were prepared and expressed in HeLa cells in the presence and absence of HDAC3 (FIG. 3I). […] HDAC3 and GFP-RelA plasmid DNA was transfected at a 6:1 ratio to ensure that all GFP-RelA expressing cells also contained HDAC3. […] Numbers shown in the lower left corner of each panel represent the percentage of cells displaying the depicted phenotype derived from inspection of at least 200 transfected cells present in multiple microscopic fields.

For CC(/C=C/C(=O)NO)=C\[C@@H](C)C(=O)c1ccc(N(C)C)cc1 [TSA, Trichostatin A], the “pattern of GFP-RelA expression in GFP-RelA and HDAC3 co-transfected cells” value was “nuclear pattern of expression”.
